## Experimental logP (octanol/water) values from OPERA 2.9

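OPERA's authors assembled the values from existing databases and did not measure them anew. A listed value is a point estimate from one report or more. Method, purity and exact conditions of the single measurements are not given. Where a salt, mixture or single isomer is drawn, the source does not say that exactly this form was tested. Some upstream entries may be estimates or bounds without being marked so.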

The octanol-water partition coefficient is given as log10; larger values mean a more lipophilic compound. Cells with "n/a" have no entry in this list.

structure (SMILES),name,log Kow
C[C@]12C[C@H]3O[C@H]3C[C@@H]1CC[C@@H]1[C@@H]2CC[C@]2(C)[C@@H](O)[C@@H](N3CCCC3)C[C@@H]12,n/a,2.9
C[C@]12C[C@H]3O[C@H]3CC1CCC1C2CC[C@]2(C)C(=O)[C@@H](N3CCCC3)CC12 (some centres undefined),n/a,3.2
O=C1OC(=O)C2C1C1(Cl)C(Cl)=C(Cl)C2(Cl)C1(Cl)Cl (stereo not given),Chlorendic anhydride,1.39
N#Cc1ccccc1Cl,2-Chlorobenzonitrile,2.2
O=C(Cc1ccccc1)OCCc1ccccc1,2-Phenylethyl phenylacetate,3.797
Cc1cc(C(C)(C)c2ccc(O)c(C)c2)ccc1O,"3,3'-Dimethylbisphenol A",4.11
S=P(Oc1ccccc1)(Oc1ccccc1)Oc1ccccc1,"Phosphorothioic acid, O,O,O-triphenyl ester",5
C=CCOCC1CO1 (stereo not given),Allyl glycidyl ether,0.45
CC(C)COC(=O)[C@H](C)Cl,Isobutyl (S)-2-chloropropionate,2.775
Clc1cc(Cl)c(-c2ccccc2Cl)cc1Cl,n/a,5.78
C=CCC1(C(C)C#CCC)C(=O)NC(=O)N(C)C1=O (stereo not given),Methohexital,1.8
C[N+](C)(C)Cc1cccc(Br)c1.[Br-],"(3-Bromophenyl)-N,N,N-trimethylmethanaminium bromide",-1.81
CCC(C)(C)c1ccc(O)cc1,4-(2-Methylbutan-2-yl)phenol,3.83
CCOCCOC(C)=O,Ethylene glycol monoethyl ether acetate,0.24
CCCOC(=O)OOC(=O)OCCC,Dipropyl peroxydicarbonate,2.96
C[N+](C)(C)Cc1ccc(CCl)o1.[I-],n/a,-2
Oc1ccc(Cl)cc1O,4-Chlorocatechol,1.68
CCCC(C)(C)OC(N)=O,2-Methylpentan-2-yl carbamate,1.45
CC(=O)C=C(C)C,4-Methylpent-3-en-2-one,1.7
C=C(C(F)(F)F)C(F)(F)F,"1,1-Bis(trifluoromethyl)ethene",2.46
Cc1cc(Cl)ccc1N,4-Chloro-2-methylaniline,2.4
COC12C[C@@H](CO)CN(C)[C@@H]1Cc1cn(C)c3cccc2c13 (some centres not stated),"(10-Methoxy-1,6-dimethylergolin-8-yl)methanol",2.5
CCOC(=O)C1OC1(C)c1ccccc1 (stereo not given),Ethyl methylphenylglycidate,2.6
O=C1NC(=O)C(=c2[nH]c(=C3C(=O)NC(=O)NC3=O)c3ccccc23)C(=O)N1,Pigment yellow 139,0.31
C[C@]12CC[C@@H]3C4=C(CC[C@H]3[C@@H]1CCC2=O)CC(=O)CC4,"Estr-5(10)-ene-3,17-dione",2.8
N=C(Nc1ccccc1)Nc1ccccc1,"1,3-Diphenylguanidine",2.055
CC1O[C@@H](O[C@H]2CC[C@]3(C)C4CC[C@]5(C)[C@@H](C6=CC(=O)OC6)CC[C@]5(O)C4CC[C@@H]3C2)CC(O)[C@@H]1O (some centres undefined),n/a,2.51
O=S(=O)(Cl)c1ccccc1,Benzenesulfonyl chloride,3.39
CC(CC(=O)OOC(C)(C)C)CC(C)(C)C (stereo not given),n/a,4.78
C#CC1(OC(N)=O)CCCCC1,Ethinamate,1.2
CCC1(CC(C)C)C(=O)NC(=O)NC1=O,5-Ethyl-5-(2-methylpropyl)barbituric acid,1.69
Cl.NNC(N)=O,Semicarbazide hydrochloride,-2.75
CC1(C)COC(=O)[C@@H]1O,Pantolactone,-0.352
CCCN1C[C@H](CSC)C[C@@H]2c3cccc4[nH]cc(c34)C[C@H]21,Pergolide,4
CCCC[N+](CCCC)(CCCC)CCCC.[OH-],"1-Butanaminium, N,N,N-tributyl-, hydroxide",1.518
CCOP(=S)(OCC)OC(=O)/C(=N\OC)c1csc(N)n1,n/a,2.66
Nc1ccc2c(c1)[C@@]13CCN4CC5=CCOC6CC(=O)N2C1[C@H]6[C@H]5C[C@H]43 (stereo not given in full),2-Aminostrychnidin-10-one,0.54
Nc1ccc(Cl)cc1C(=O)c1ccccc1Cl,"Methanone, (2-amino-5-chlorophenyl)(2-chlorophenyl)-",3.1
CC(=O)OC(C)=O,Acetic anhydride,-0.27
C[C@]12COC(=O)C[C@@H]1CC[C@@H]1[C@@H]2CC[C@@]2(C)[C@H]1CC[C@]2(C)O,Oxandrolone,4.2
C[N+](C)(C)CC1CCOC1.[I-] (stereo not given),"N,N,N-Trimethyl(oxolan-3-yl)methanaminium iodide",-2.65
CC(=O)c1cc2c(cc1C)C(C)(C)C(C)C2(C)C (stereo not given),Phantolide,5.59
C[C@]12CC[C@H]3[C@@H](C4CC4[C@]4(O)C[C@@H](O)CC[C@]34C)[C@@H]1[C@@H]1C[C@@H]1C2=O (stereo not given in full),n/a,2.06
Clc1cc(Cl)c2c(c1)Oc1cc(Cl)c(Cl)cc1O2,n/a,7.1
CCCCOC(=O)c1ccccc1N,Butyl anthranilate,3.69
C=C(C)C(=O)OCCCCOC(=O)C(=C)C,"Butane-1,4-diyl bis(2-methylprop-2-enoate)",3.1
C=CF,Vinyl fluoride,1.19

Extract of 6 entries:

{"smiles": "COC12C[C@@H](CO)CN(C)[C@@H]1Cc1cn(C)c3cccc2c13", "stereo": "some centres not stated", "name": "(10-Methoxy-1,6-dimethylergolin-8-yl)methanol", "log Kow": "2.5"}
{"smiles": "CCCC[N+](CCCC)(CCCC)CCCC.[OH-]", "name": "1-Butanaminium, N,N,N-tributyl-, hydroxide", "log Kow": "1.518"}
{"smiles": "S=P(Oc1ccccc1)(Oc1ccccc1)Oc1ccccc1", "name": "Phosphorothioic acid, O,O,O-triphenyl ester", "log Kow": "5"}
{"smiles": "CCCC(C)(C)OC(N)=O", "name": "2-Methylpentan-2-yl carbamate", "log Kow": "1.45"}
{"smiles": "C=CCC1(C(C)C#CCC)C(=O)NC(=O)N(C)C1=O", "stereo": "stereo not given", "name": "Methohexital", "log Kow": "1.8"}
{"smiles": "N#Cc1ccccc1Cl", "name": "2-Chlorobenzonitrile", "log Kow": "2.2"}

Values as listed in the OPERA 2.9 repository of K. Mansouri.